{"sequences": {"note": "By UniProt entry, the sequences of proteins in these tests, tags left out.", "UniProt P11802, whole entry": "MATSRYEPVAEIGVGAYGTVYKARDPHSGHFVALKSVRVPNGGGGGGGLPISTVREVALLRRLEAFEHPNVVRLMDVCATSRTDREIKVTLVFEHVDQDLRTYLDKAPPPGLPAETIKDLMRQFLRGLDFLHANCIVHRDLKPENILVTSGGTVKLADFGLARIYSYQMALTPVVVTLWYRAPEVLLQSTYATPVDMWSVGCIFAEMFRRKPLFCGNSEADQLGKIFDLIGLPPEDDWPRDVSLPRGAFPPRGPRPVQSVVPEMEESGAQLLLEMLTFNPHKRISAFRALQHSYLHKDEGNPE", "UniProt Q00534, whole entry": "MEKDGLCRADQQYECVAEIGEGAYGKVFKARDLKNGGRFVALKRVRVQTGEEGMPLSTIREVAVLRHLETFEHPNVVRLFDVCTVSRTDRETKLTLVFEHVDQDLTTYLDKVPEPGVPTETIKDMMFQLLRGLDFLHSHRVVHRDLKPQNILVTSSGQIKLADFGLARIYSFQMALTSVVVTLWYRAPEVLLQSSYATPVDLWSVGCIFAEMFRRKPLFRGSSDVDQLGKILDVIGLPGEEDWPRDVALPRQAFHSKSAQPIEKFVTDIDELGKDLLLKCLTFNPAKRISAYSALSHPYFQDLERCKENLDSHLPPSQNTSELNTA", "UniProt P30281, whole entry partner": "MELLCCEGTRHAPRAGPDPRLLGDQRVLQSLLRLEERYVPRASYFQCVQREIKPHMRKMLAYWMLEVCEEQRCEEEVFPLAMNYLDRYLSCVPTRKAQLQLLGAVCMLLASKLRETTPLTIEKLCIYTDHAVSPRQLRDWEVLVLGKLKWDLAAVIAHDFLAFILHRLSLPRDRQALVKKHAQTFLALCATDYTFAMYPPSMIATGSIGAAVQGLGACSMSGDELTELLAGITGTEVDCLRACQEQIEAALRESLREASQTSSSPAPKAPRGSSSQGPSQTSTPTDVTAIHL", "UniProt P24385, whole entry partner": "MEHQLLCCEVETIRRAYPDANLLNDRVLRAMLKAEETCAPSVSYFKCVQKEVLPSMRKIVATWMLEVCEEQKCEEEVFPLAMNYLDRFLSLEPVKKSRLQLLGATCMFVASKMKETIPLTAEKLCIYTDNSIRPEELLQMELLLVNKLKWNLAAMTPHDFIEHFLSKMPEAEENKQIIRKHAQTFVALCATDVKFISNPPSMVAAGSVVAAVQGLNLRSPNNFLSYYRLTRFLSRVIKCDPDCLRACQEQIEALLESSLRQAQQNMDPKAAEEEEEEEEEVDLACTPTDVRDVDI"}, "source": "patent US20250136586A1", "about": "“Substituted 7-(Pyrimidin-4-yl)Quinolin-4(1H)-One Compounds as Cyclin Dependent Kinase Inhibitors” (BeiGene, Ltd., priority 2022, published 2025)", "key": {"CDK4/Cyclin D1": {"target": "CDK4/Cyclin D1 (Homo sapiens (Human), UniProt P11802)", "test": "TR-FRET kinase inhibition assay, CDK4/Cyclin D1", "conditions": "read-out: CDK4D1 IC50, 1 mM ATP, 0.15 μM Rb (Ser780)-biotin substrate"}, "CDK6/Cyclin D3": {"target": "CDK6/Cyclin D3 (Homo sapiens (Human), UniProt Q00534)", "test": "TR-FRET kinase inhibition assay, CDK6/Cyclin D3", "conditions": "read-out: CDK6D3 IC50, 1 mM ATP, 0.15 μM Rb (Ser780)-biotin substrate", "protocol": "Compounds disclosed herein were tested for inhibition of CDK4/Cyclin D1 or CDK6/Cyclin D3 kinase in an assay based on the time-resolved fluorescence-resonance energy transfer (TR-FRET) methodology. The assay was carried out in 384-well low volume black plates in a reaction mixture containing CDK4/Cyclin D1 or CDK6/Cyclin D3, 1 mM ATP, 0.15 μM Rb (Ser780)-biotin substrate and 0-10 μM compound in buffer containing 50 mM HEPES pH7.0, 0.02% NaN3, 0.01% BSA, 0.1 mM Orthovanadate, 50 mM MgCl2, 1 mM DTT and 0.005% Tween-20. The kinase was incubated with compound for 60 minutes at room temperature and the reaction was initiated by the addition of ATP and Rb (Ser780)-biotin substrate. After reaction at room temperature for 120 minutes, an equal volume of stop/detection solution was added according to the manufacture's instruction (Cisbio Bioassays). The stop/detection solution contained Streptavidin-XL665 and Anti-pRb (Ser780) mAb-Eu Cryptate in Detection buffer (Cisbio Bioassays). Plates were incubated at room temperature for 60 minutes, and the TR-FRET signals (ex337 nm, em665 nm/620 nm) were recorded on a PHERAstar FSX plate reader (BMG Labtech). The inhibition percentage of CDK4/Cyclin D1 or CDK6/Cyclin D3 kinase activity in presence of increasing concentrations of compounds was calculated based on the ratio of fluorescence at 665 nm to that at 620 nm. […]"}}}
{"smiles": "CC(C)n1c(CN2CC3CCC(C2)O3)cc(=O)c2ccc(-c3nc(N[C@@H]4CCOC[C@H]4O)ncc3F)cc21", "values": [{"measurement": "IC50", "setting": "CDK4/Cyclin D1", "result": 17, "unit": "nM"}, {"measurement": "IC50", "setting": "CDK6/Cyclin D3", "result": 374, "unit": "nM"}]}
